Bioassay records deposited in PubChem BioAssay by National Center for Advancing Translational Sciences (NCATS).
Nrf2 block: blocks Nrf2 signaling; 360,000 tested, 2.1% active; Potency, µM (titrated, usually from 46 µM), without a hit: at the highest dose activity change, negative = inhibition, actives largely listed as inhibitors; AID 504444; A549 ARE-Fluc reporter, luciferase luminescence, 18-24 h; note: potency is the fitted concentration of half-maximal effect; % is set by controls: 0 for no effect and ±100 for the full control effect; nearly all actives have a fitted effect of over 60% in size
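Nrf2 function is reported as luminescence of an ARE-controlled luciferase in A549 cells. Compounds were tested at several concentrations, and a CellTiter-Fluor read on the same wells flagged cytotoxicity.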
GRP78 ERSR act: ER stress response induction in glioma | U87-MG GRP78 promoter luciferase reporter, 16 h | Potency, µM, without a hit: at the highest dose activation, hits mostly activators | 420,000 tested, 0.02% active | AID 602332; note: potency is the fitted concentration of half-maximal effect; series mostly up to about 76 µM; % of control where 0% means no effect; nearly all actives have a fitted effect of over 35% in size
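Stably transfected U87-MG human glioma cells carrying a GRP78-based luminescent sensor were seeded at 1000 cells/well, pin-dosed with compounds and incubated 16 h. Luciferase reagent was then added, and end-point luminescence was read after 10 min at room temperature.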
PTAP TSG101 blk: blocks PTAP/TSG101 interaction to inhibit HIV-1 budding | Q99816 | Fluorescence polarization, FITC-PTAP peptide / Tsg101 binding | Potency, µM (series often up to 115 µM), for the others: top-dose activity change, negative = inhibition, usual class: inhibitors | 340,000 tested, under 10 active | AID 493005; active = well fitted inhibition curve with a large enough effect in the main read-out, with a control signal flat, not every such curve was filed as active; inconclusive = small, poorly fitted or top-dose-only effect, or effect the other way, or a change in a side signal; inactive = no such curve, though single readings can be large or run the other way; note: potency is the fitted concentration of half-maximal effect; % of control where 0% means no effect
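FP read-out: FITC-PTAP peptide, 50 nM final, binding Tsg101 binding domain, 10 uM final; 20 min, r.t.; 10 mM HEPES pH 7.5, 0.15 M NaCl, 0.01% Tween 20, 3 mM EDTA, 0.1 mM TCEP.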
miR-21 reporter: raises the signal of a miR-21 reporter | AID 2288 | 340,000 tested, under 10 active | Potency, µM (series often up to 38.3 µM), without a hit: at the highest dose reporter change, positive = more light | HeLa miR-21 FLuc reporter, luciferase, 48 h; active = well fitted rising curve with a large enough effect; inconclusive = small, poorly fitted or top-dose-only effect; inactive = no such curve, though single readings can be large or run the other way;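 further: % of control where 0% means no effect; miR-21 action dims this reporter so a rising signal means less miR-21 action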
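Compounds were titrated across several concentrations (up to approximately 40 uM) and incubated 48 hours with HeLa miR-21-FLuc reporter cells (miR-21 target sequence downstream of FLuc, endogenous miR-21). Readout was firefly luciferase luminescence after lytic detection reagent.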
Nrf2 ARE act: activates Nrf2 signaling; AREc32 ARE-luciferase reporter (MCF7-derived line), luminescence, 24 h; Potency, µM (titrated, usually from 46.1 µM), inactives show top-dose activation, hits mostly activators; 410,000 tested, 0.31% active; AID 624171; note: potency is the fitted concentration of half-maximal effect; % of control where 0% means no effect; nearly all actives have a fitted effect of over 65% in size
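Nrf2 activation is followed as ARE-luciferase induction in the AREc32 line after one day of compound treatment; luminescence is read with Steady-Glo.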
A549 tox: A549 cytotoxicity, counter-screen for Nrf2 inhibitors; A549 ARE-Fluc cells, CellTiter-Fluor viability, 18-24 h; Potency, µM (doses to about 46 µM), for the others: at the highest dose activity change, negative = cytotoxicity, most hits filed as inhibitors; 390,000 tested, 0.16% active; AID 504648; note: potency is the fitted concentration of half-maximal effect; % is set by controls: 0 for no effect and ±100 for the full control effect
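A549 ARE-Fluc cells in 5% FBS OPTI-MEM, 5000 cells/well, rested 2 h then exposed to compounds in concentration-response for 18-24 h at 37 °C. Viability by CellTiter-Fluor fluorescence (Ex 405/Em 525) after 30 min; luciferase luminescence (BugLite, 15 min, RT) read afterwards.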
An asterisk follows results filed as active; ? = inconclusive; / = no result; [ ] = dose if it differs, or a comment. Compounds with a hit are over-represented: about 2.1% of the library has one in this group of screens. Unless noted, calls come from the whole dose curve; as a rule, active = well fitted curve in the direction sought with a large enough effect; inconclusive = small, poorly fitted or top-dose-only effect, or another doubt; inactive = no such curve, though single readings can be large; an effect the other way counts as inactive or inconclusive.

1) Cc1ccc(S(=O)(=O)N(C)C)cc1NC(=O)COC(=O)CCNS(=O)(=O)c1ccccc1
2) Cc1ccc(S(=O)(=O)NCCC(=O)Nc2cc(S(=O)(=O)N(C)C)ccc2C)cc1C
3) COc1cc(-c2nn3c(-c4cc(-c5ccccc5)n[nH]4)nnc3s2)cc(OC)c1OC
4) COc1cc(-c2nn3c(-c4ccccc4)nnc3s2)cc(OC)c1OC
5) CCC1CN(Cc2cn[nH]c2-c2ccc(OC)cc2)Cc2cc(OC)ccc2O1 (configuration not stated)
6) O=C(NC(=S)Nc1ccccc1Cl)C1CC1
7) COc1ccccc1NS(=O)(=O)c1ccc(Cl)c(NC(=S)NC(=O)C2CCCC2)c1
8) CCN(CC)c1ccc(S(=O)(=O)Nc2cc(Cl)ccc2Cl)cc1NC(=S)NC(=O)C1CCCC1
Assay by compound | 1 | 2 | 3 | 4 | 5 | 6 | 7 | 8
Nrf2 block | 1.0% | 7.31µM* | 20.6µM* | 4.4% | / | ? | ? | 18.4µM*
GRP78 ERSR act | -2.0% | -5.8% | 0.2% | -2.1% | -2.3% | 4.2% | -4.7% | 1.5%
PTAP TSG101 blk | -1.9% | -8.1% | / | -2.4% | / | -9.5% | 1.5% | -1.7%
miR-21 reporter | / | 0.4% | / | -14.5% | / | -41.8% | 6.4% | 0.7%
Nrf2 ARE act | -0.9% | -0.6% | / | 3.3% | / | 3.3% | 3.4% | 3.7%
A549 tox | -9.3% | 0.5% | ? | / | / | 2.8% | -3.5% | -16.2%

Arranged by formula weight (low to high): some entries from above.
5) CCC1CN(Cc2cn[nH]c2-c2ccc(OC)cc2)Cc2cc(OC)ccc2O1 (configuration not stated)
2) Cc1ccc(S(=O)(=O)NCCC(=O)Nc2cc(S(=O)(=O)N(C)C)ccc2C)cc1C
7) COc1ccccc1NS(=O)(=O)c1ccc(Cl)c(NC(=S)NC(=O)C2CCCC2)c1
Assay by compound | 5 | 2 | 7
Nrf2 block | / | 7.31µM* | ?
GRP78 ERSR act | -2.3% | -5.8% | -4.7%
PTAP TSG101 blk | / | -8.1% | 1.5%
miR-21 reporter | / | 0.4% | 6.4%
Nrf2 ARE act | / | -0.6% | 3.4%
A549 tox | / | 0.5% | -3.5%

Arranged by the number under miR-21 reporter (rising): some entries from above.
nr	compound	PTAP TSG101 blk	miR-21 reporter	Nrf2 ARE act
6	O=C(NC(=S)Nc1ccccc1Cl)C1CC1	-9.5%	-41.8%	3.3%
2	Cc1ccc(S(=O)(=O)NCCC(=O)Nc2cc(S(=O)(=O)N(C)C)ccc2C)cc1C	-8.1%	0.4%	-0.6%
8	CCN(CC)c1ccc(S(=O)(=O)Nc2cc(Cl)ccc2Cl)cc1NC(=S)NC(=O)C1CCCC1	-1.7%	0.7%	3.7%

The list goes on.
9) CCN(CC)S(=O)(=O)c1ccc(Cl)c(NC(=S)NC(=O)C2CCCC2)c1
10) COC(=O)c1ccc2nc(-c3ccc(F)cc3)c(Cc3ccc(OC)cc3C)n2c1
11) COC(=O)c1ccc2nc(-c3ccc(F)cc3)c(Cc3cccc(F)c3)n2c1
12) COC(=O)c1ccc2nc(-c3ccco3)c(Cc3cccc(F)c3)n2c1
13) COC(=O)c1ccc2nc(-c3ccco3)c(Cc3ccc(C)cc3)n2c1
14) COC(=O)c1ccc2nc(-c3ccco3)c(Cc3ccc(OC)cc3C)n2c1
15) O=C(/C=C/c1ccccc1[N+](=O)[O-])N1CCc2ccccc2C1
16) CCc1ccc(/C=C\C(=O)N2CCc3ccccc3C2)cc1
Assay by compound | 9 | 10 | 11 | 12 | 13 | 14 | 15 | 16
Nrf2 block | 8.2µM* | / | / | / | / | / | 22.9% | ?
GRP78 ERSR act | -4.5% | -2.3% | / | 4.6% | ? | -5.1% | 3.2% | 2.6%
PTAP TSG101 blk | -7.0% | / | / | / | / | / | -2.3% | -0.4%
miR-21 reporter | / | / | / | / | / | / | -37.4% | -44.3%
Nrf2 ARE act | 0.4% | 0.1% | 8.7% | 11.2µM* | 11.2µM* | 11.2µM* | 8.91µM* | 2.6%
A549 tox | -19.1% | / | / | / | / | / | -0.1% | -3.3%

17) COc1ccc(C(O)c2nccc3cc(OC)c(OC)cc23)cc1OC (configuration not stated)
18) COc1cc(N)c(C(O)c2nccc3cc(OC)c(OC)cc23)cc1OC (configuration not stated)
19) CS(=O)(=O)N(CC(O)CON=C1c2ccccc2-c2ccccc21)c1ccc(F)cc1 (configuration not stated)
20) CC(C)CCNCC(O)CON=C1c2ccccc2-c2ccccc21 (configuration not stated)
21) Cc1cccc(N(CC(O)CON=C2c3ccccc3-c3ccccc32)S(C)(=O)=O)c1 (configuration not stated)
22) Cc1cccc(N(CC(O)CN2CCCC2)S(=O)(=O)c2ccccc2)c1 (configuration not stated)
23) Cc1cccn2c(=O)c3cc(C(=O)NCCc4ccc(S(N)(=O)=O)cc4)n(C)c3nc12
24) Cc1cc(C)nc(NS(=O)(=O)c2ccc(NC(=O)c3cc4c(=O)n5cccc(C)c5nc4n3C)cc2)n1
Assay by compound | 17 | 18 | 19 | 20 | 21 | 22 | 23 | 24
Nrf2 block | 20.6µM* | ? | 8.2µM* | 11.6% | 18.4µM* | -12.4% | 0.9% | 23.1µM*
GRP78 ERSR act | -4.0% | 0.3% | -0.7% | -2.9% | -2.4% | -4.1% | -1.4% | -1.6%
PTAP TSG101 blk | -8.7% | -2.7% | -2.6% | 0.1% | -3.2% | -0.4% | / | -4.4%
miR-21 reporter | 5.1% | -7.5% | 14.8% | ? | 20.7% | -4.4% | 5.5% | -18.9%
Nrf2 ARE act | 1.6% | 0.0%[9.22 µM] | 0.1% | -0.6% | 3.0% | -0.6% | 0.1% | 0.1%
A549 tox | -13.9% | -4.7% | -26.3% | 7.1% | ? | -17.4% | 3.2% | -13.0%

25) Cc1cnc(SCc2ccccn2)nc1C1CCCN(C(=O)c2noc3c2CCCC3)C1 (configuration not stated)
26) OCCN(Cc1cccnc1)Cc1ccccn1
27) Cc1ccc(C)c(N2CCN(C(=O)Nc3ccc4c(c3)N(C)C(=O)CS4)CC2)c1
28) COc1ccc(OC)c(-c2ccnc(-n3ncc(C(=O)N4CCN(CCO)CC4)c3C3CC3)n2)c1
29) Cc1nc(NCc2ccco2)c2c3c(sc2n1)CCC3
30) COc1ccc(Nc2nc(C)nc3sc4c(c23)CCC4)cc1O
31) C=CCNc1nnc(-c2cccc3ccccc23)o1
32) CC1=CC(C)(C)Nc2ccc(OC(=O)C(C)N3C(=O)c4ccccc4C3=O)cc21 (configuration not stated)
Assay by compound | 25 | 26 | 27 | 28 | 29 | 30 | 31 | 32
Nrf2 block | / | 14.4% | 16.4µM* | / | / | -1.2% | 7.1% | 25.9µM*
GRP78 ERSR act | -3.0% | -3.9% | -3.4% | -3.2% | -1.7% | -6.8% | / | -15.8%
PTAP TSG101 blk | / | 1.3% | -0.6% | / | -4.8% | -3.6% | / | -1.5%
miR-21 reporter | / | / | 23.5% | / | -5.7% | 17.0% | / | ?
Nrf2 ARE act | / | 2.1% | 10.9% | / | 28.2% | 6.31µM* | / | -1.3%
A549 tox | / | 20.6µM* | -4.7% | / | -3.6% | -12.7% | 2.6% | 1.5%

33) CC(C)(C)c1ccc(C(=O)CCCSC2=C(C#N)C(c3ccco3)C3=C(CCCC3=O)N2)cc1 (configuration not stated)
34) COc1ccc(N2CCN(c3c4c(nc5nncn35)CCC4)CC2)cc1
35) CC1CC(C)CN(C(=O)COC(=O)/C=C/c2ccco2)C1 (configuration not stated)
36) CC(NC(=O)COC(=O)/C=C/c1ccco1)c1ccccc1 (configuration not stated)
37) CNC(=O)COC(=O)/C=C/c1ccco1
38) CCCCN(C(=O)CSc1nnc(-c2ccc(Cl)cc2)o1)c1c(N)n(CC(C)C)c(=O)[nH]c1=O
39) CCOc1nc2c(c(=O)n(C)c(=O)n2C)n1Cc1ccccc1Cl
40) COc1ccccc1Oc1nc2c(c(=O)n(C)c(=O)n2C)n1Cc1cccc(Br)c1
41) Cn1c(=O)c2c(nc(N3CCCCCC3)n2Cc2cccc3ccccc23)n(C)c1=O
42) Cn1c(=O)c2c(nc(Cl)n2CCOc2ccccc2)n(C)c1=O
43) Cn1c(=O)c2c(nc(Br)n2Cc2ccccc2Cl)n(C)c1=O
Assay by compound | 33 | 34 | 35 | 36 | 37 | 38 | 39 | 40 | 41 | 42 | 43
Nrf2 block | 20.6µM* | 20.6µM* | 0.1% | 16.0% | -18.3% | 18.4µM* | 18.4µM* | 16.4µM* | ? | 25.9µM* | /
GRP78 ERSR act | -3.4% | / | 1.6% | -3.4% | 1.1% | -1.3% | -3.3% | -2.8% | -4.2% | -4.1% | -6.2%
PTAP TSG101 blk | -1.4% | / | -0.8% | 0.0% | 0.2% | 0.0% | -2.0% | / | -3.1% | 1.8% | -5.7%
miR-21 reporter | -3.8% | 19.2% | / | 6.9% | 0.1% | / | 1.4% | -6.5% | -3.0% | 2.2% | -0.8%
Nrf2 ARE act | 3.0% | 0.1% | 14.1µM* | 12.6µM* | 23.8% | -0.4% | 0.2% | -0.1% | -0.5% | -0.1% | -0.7%
A549 tox | 20.6µM* | 2.1% | 18.1% | -9.1% | 2.5% | ? | -11.1% | -0.2% | 23.1µM* | 3.6% | -0.5%
